Legend:
[1] = biological target: ePHF tau (tau in the form of paired helical filaments, immobilized on plate) (UniProt P10636); assay: ePHF tau ELISA; […]; rep 1
[2] = biological target: ePHF tau (tau in the form of paired helical filaments, immobilized on plate) (UniProt P10636); assay: ePHF tau ELISA; 111.1 ng/mL; rep 2
[3] = biological target: ePHF tau (tau in the form of paired helical filaments, immobilized on plate) (UniProt P10636); assay: ePHF tau ELISA; 4.1 ng/mL; rep 1
[4] = biological target: ePHF tau (tau in the form of paired helical filaments, immobilized on plate) (UniProt P10636); assay: ePHF tau ELISA; 111.1 ng/mL; rep 1
[5] = biological target: ePHF tau (tau in the form of paired helical filaments, immobilized on plate) (UniProt P10636); assay: ePHF tau ELISA; 12.3 ng/mL; rep 2
[6] = biological target: ePHF tau (tau in the form of paired helical filaments, immobilized on plate) (UniProt P10636); assay: ePHF tau ELISA; 0.5 ng/mL; rep 2
[7] = biological target: ePHF tau (tau in the form of paired helical filaments, immobilized on plate) (UniProt P10636); assay: ePHF tau ELISA; 12.3 ng/mL; rep 1
[8] = biological target: ePHF tau (tau in the form of paired helical filaments, immobilized on plate) (UniProt P10636); assay: ePHF tau ELISA; 4.1 ng/mL; rep 2
[9] = biological target: ePHF tau (tau in the form of paired helical filaments, immobilized on plate) (UniProt P10636); assay: ePHF tau ELISA; 333.3 ng/mL; rep 1
[10] = biological target: ePHF tau (tau in the form of paired helical filaments, immobilized on plate) (UniProt P10636); assay: ePHF tau ELISA; 333.3 ng/mL; rep 2
[11] = biological target: ePHF tau (tau in the form of paired helical filaments, immobilized on plate) (UniProt P10636); assay: ePHF tau ELISA; 37.0 ng/mL; rep 1
[12] = biological target: ePHF tau (tau in the form of paired helical filaments, immobilized on plate) (UniProt P10636); assay: ePHF tau ELISA; 0.5 ng/mL; rep 1
[13] = biological target: ePHF tau (tau in the form of paired helical filaments, immobilized on plate) (UniProt P10636); assay: ePHF tau ELISA; 1000.0 ng/mL; rep 1
[14] = biological target: ePHF tau (tau in the form of paired helical filaments, immobilized on plate) (UniProt P10636); assay: ePHF tau ELISA; 1000.0 ng/mL; rep 2
[15] = biological target: ePHF tau (tau in the form of paired helical filaments, immobilized on plate) (UniProt P10636); assay: ePHF tau ELISA; […]; rep 2
[16] = biological target: ePHF tau (tau in the form of paired helical filaments, immobilized on plate) (UniProt P10636); assay: ePHF tau ELISA; 37.0 ng/mL; rep 2
[17] = biological target: wild-type tau (Tau441) (human) (UniProt P10636); assay: ELISA, Tau441 on plate; antibody at […]
[18] = biological target: wild-type tau (Tau441) (human) (UniProt P10636); assay: ELISA, Tau441 on plate; antibody at 12.3 ng/mL
[19] = biological target: wild-type tau (Tau441) (human) (UniProt P10636); assay: ELISA, Tau441 on plate; antibody at 111.1 ng/mL
[20] = biological target: wild-type tau (Tau441) (human) (UniProt P10636); assay: ELISA, Tau441 on plate; antibody at 0.0 ng/mL [sic]
[21] = biological target: wild-type tau (Tau441) (human) (UniProt P10636); assay: ELISA, Tau441 on plate; antibody at 4.1 ng/mL
[22] = biological target: wild-type tau (Tau441) (human) (UniProt P10636); assay: ELISA, Tau441 on plate; antibody at 37.0 ng/mL
[23] = biological target: wild-type tau (Tau441) (human) (UniProt P10636); assay: ELISA, Tau441 on plate; antibody at 333.3 ng/mL
[24] = biological target: wild-type tau (Tau441) (human) (UniProt P10636); assay: ELISA, Tau441 on plate; antibody at 1000.0 ng/mL

Q: With “PHF-1 control anti-tau antibody (antibody; other documents disagree on this pair)” as the substance, how does the OD450 [1] read?
A: Its OD450 is 0.1.

Q: What about the OD450 [2] of the same substance?
A: The OD450 was 1.3.

Q: And the OD450 [3]?
A: The OD450 was 0.2.

Q: And the OD450 [4]?
A: The OD450 was 1.2.

Q: And the OD450 [5]?
A: The OD450 was 0.5.

Q: What about the OD450 [6] of the same substance?
A: Its OD450 is 0.1.

Q: And the OD450 [7]?
A: The OD450 was 0.5.

Q: And the OD450 [8]?
A: Its OD450 is 0.2.

Q: And the OD450 [9]?
A: The OD450 was 1.5.

Q: What about the OD450 [10] of the same substance?
A: The OD450 was 1.6.

Q: And the OD450 [11]?
A: The OD450 was 0.8.

Q: And the OD450 [12]?
A: The OD450 was 0.1.

Q: What about the OD450 [13] of the same substance?
A: The OD450 was 2.1.

Q: What about the OD450 [14] of the same substance?
A: Its OD450 is 2.2.

Q: What about the OD450 [15] of the same substance?
A: Its OD450 is 0.1.

Q: What about the OD450 [16] of the same substance?
A: The OD450 was 0.9.

Q: What does the source list for PHF-1 control antibody?
A: OD450 [17]: 0.1 OD450; OD450 [18]: 0.1 OD450; OD450 [19]: 0.1 OD450; OD450 [20]: 0.1 OD450; OD450 [21]: 0.1 OD450; OD450 [22]: 0.1 OD450; OD450 [23]: 0.1 OD450; OD450 [24]: 0.1 OD450
